The results in this text go back to patent US9440982B2 (Eolas Therapeutics, Inc., priority 2012, dated 2016).

Sequences of proteins named here, by UniProt entry; tags and fusion partners are left off.
UniProt O43614, whole entry: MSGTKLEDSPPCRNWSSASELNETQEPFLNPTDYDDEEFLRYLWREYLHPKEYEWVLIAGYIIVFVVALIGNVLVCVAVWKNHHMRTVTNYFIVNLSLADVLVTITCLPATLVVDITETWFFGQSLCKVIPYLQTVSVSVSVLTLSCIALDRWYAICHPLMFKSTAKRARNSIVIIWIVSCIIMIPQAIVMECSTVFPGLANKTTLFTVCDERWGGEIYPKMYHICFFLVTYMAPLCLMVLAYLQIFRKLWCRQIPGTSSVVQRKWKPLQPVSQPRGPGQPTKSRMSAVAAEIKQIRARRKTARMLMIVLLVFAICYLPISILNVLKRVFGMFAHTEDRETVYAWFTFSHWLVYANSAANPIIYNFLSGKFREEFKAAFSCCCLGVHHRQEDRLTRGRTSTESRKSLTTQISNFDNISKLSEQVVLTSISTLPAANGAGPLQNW

The first assay addresses T1, OX2 (Homo sapiens, UniProt O43614).
T1 construct: expressed in transfected cells; host or cells: CHO (CHO-OX2, kept under selection antibiotic)
Kind of assay: Orexin receptor cell-based functional assay, [Ca2+]i by FLIPR, CHO-OX2 cells. Particulars: CHO-OX2 cells, [Ca2+]i by FLIPR, antagonist dose-range 0.1 nM-10 μM, EC90 of OXA; read-out: OX2.
`Cc1ccc(-c2cnn(C)c2)c(C(=O)N2CCC[C@@H](C)[C@H]2CNc2nc3cc(Cl)ccc3o2)c1` [Example A12, ((2S,3R)-2-(((5-chlorobenzo[d]oxazol-2-yl)amino)methyl)-3-methylpiperidin-1-yl)(5-methyl-2-(1-methyl-1H-pyrazol-4-yl)phenyl)methanone]: the IC50 is 0.8 µM.
Consider `C[C@@H]1CCCN(C(=O)c2cc(C#N)ccc2-n2nccn2)[C@@H]1CNc1ncc(C(F)(F)F)cn1` [Example A322, 3-((2S,3R)-3-Methyl-2-(((5-(trifluoromethyl)pyrimidin-2-yl)amino)methyl)piperidine-1-carbonyl)-4-(2H-1,2,3-triazol-2-yl)benzonitrile], for which the IC50 is greater than 5 µM.
On the same count and under the same terms, next, `Cc1ccc(-n2ccc(C)n2)c(C(=O)N2CCC[C@@H](C)[C@H]2CNc2ccc(C(F)(F)F)nn2)c1` [Example A130, ((2S,3R)-3-Methyl-2-(((6-(trifluoromethyl)pyridazin-3-yl)amino)methyl)piperidin-1-yl)(5-methyl-2-(3-methyl-1H-pyrazol-1-yl)phenyl)methanone]: greater than 5 µM; `C[C@@H]1CCCN(C(=O)c2cc(F)ccc2-c2ncccn2)[C@@H]1CNc1ncc(Cl)cn1` [Example A226, ((2S,3R)-2-(((5-Chloropyrimidin-2-yl)amino)methyl)-3-methylpiperidin-1-yl)(5-fluoro-2-(pyrimidin-2-yl)phenyl) methanone]: greater than 5 µM; `Cc1ccc(-c2ncccn2)c(C(=O)N2CCC[C@@H](C)[C@H]2CNc2ncc(Cl)cc2F)c1` [Example A181, ((2S,3R)-2-(((5-Chloro-3-fluoropyridin-2-yl)amino)methyl)-3-methylpiperidin-1-yl)(5-methyl-2-(pyrimidin-2-yl)phenyl)methanone]: greater than 5 µM.
For `Cc1ccc(-n2nccn2)c(C(=O)N2CCC[C@@H](C)[C@H]2CNc2nc3cc(F)ccc3o2)c1` [Example A129, ((2S,3R)-2-(((5-Fluorobenzo[d]oxazol-2-yl)amino)methyl)-3-methylpiperidin-1-yl)(5-methyl-2-(2H-1,2,3-triazol-2-yl)phenyl)methanone], the IC50 stood at 0.1 µM.
Turning to `Cc1nc(C(=O)N2CCC[C@H](C)[C@@H]2CNc2ccc(C(F)(F)F)cn2)c(-c2ccc(F)cc2)s1` [Example A43, (5-(4-Fluorophenyl)-2-methylthiazol-4-yl)((2R,3S)-3-methyl-2-(((5-(trifluoromethyl)pyridin-2-yl)amino)methyl)piperidin-1-yl)methanone], the IC50 was greater than 4 µM.
Still for that read-out and setting: next, `Cc1ccc(-c2ccccn2)c(C(=O)N2CCC[C@@H](C)[C@H]2CNc2ccc(C(F)(F)F)cn2)n1` [Example A217, ((2S,3R)-3-Methyl-2-(((5-(trifluoromethyl)pyridin-2-yl)amino)methyl)piperidin-1-yl)(6′-methyl-[2,3′-bipyridin]-2′-yl)methanone]: greater than 5 µM.
On the same count and under the same terms, next, `Cc1ccc(-c2ccn(C)c2)c(C(=O)N2CCC[C@@H](C)[C@H]2CNc2ccc(C(F)(F)F)cn2)c1` [Example A6, ((2S,3R)-3-Methyl-2-(((5-(trifluoromethyl)pyridin-2-yl)amino)methyl)piperidin-1-yl)(5-methyl-2-(1-methyl-1H-pyrrol-3-yl)phenyl)methanone]: greater than 4 µM; `COc1cccc(NC[C@@H]2[C@H](C)CCCN2C(=O)c2cc(C)ccc2-n2nccn2)n1` [Example A80, ((2S,3R)-2-(((6-Methoxypyridin-2-yl)amino)methyl)-3-methylpiperidin-1-yl)(5-methyl-2-(2H-1,2,3-triazol-2-yl)phenyl)methanone]: greater than 4 µM; `Cc1ccc(-n2nccn2)c(C(=O)N2CCC[C@@H](C)[C@H]2CNc2ncc(C#N)cc2F)n1` [Example A193, 5-Fluoro-6-((((2S,3R)-3-methyl-1-(6-methyl-3-(2H-1,2,3-triazol-2-yl)picolinoyl)piperidin-2-yl)methyl)amino)nicotinonitrile]: greater than 5 µM.
Same read-out and setting: next, `Cc1ccc(-n2nccn2)c(C(=O)N2CCC[C@@H](C)[C@H]2CNc2ccc(F)cn2)c1` [Example A47, ((2S,3R)-2-(((5-Fluoropyridin-2-yl)amino)methyl)-3-methylpiperidin-1-yl)(5-methyl-2-(2H-1,2,3-triazol-2-yl)phenyl)methanone]: greater than 5 µM; `C[C@@H]1CCCN(C(=O)c2cccc(F)c2-c2ncccn2)[C@@H]1CNc1ncc(C(F)(F)F)cn1` [Example A230, (3-Fluoro-2-(pyrimidin-2-yl)phenyl)((2S,3R)-3-methyl-2-(((5-(trifluoromethyl)pyrimidin-2-yl)amino)methyl)piperidin-1-yl)methanone]: greater than 5 µM; `Cc1ccc(-c2ccnc(C)c2)c(C(=O)N2CCC[C@@H](C)[C@H]2CNc2ccc(F)cn2)c1` [Example A53, ((2S,3R)-2-(((5-Fluoropyridin-2-yl)amino)methyl)-3-methylpiperidin-1-yl)(5-methyl-2-(2-methylpyridin-4-yl)phenyl)methanone]: greater than 5 µM.
As for `Cc1ccc(-n2cnc(C)n2)c(C(=O)N2CCC[C@@H](C)[C@H]2CNc2ccc(C(F)(F)F)cn2)c1` [Example A17, ((2S,3R)-3-Methyl-2-(((5-(trifluoromethyl)pyridin-2-yl)amino)methyl)piperidin-1-yl)(5-methyl-2-(3-methyl-1H-1,2,4-triazol-1-yl)phenyl)methanone], the IC50 was greater than 4 µM.
Still for that read-out and setting: next, `Cc1ccc(-c2cccnc2)c(C(=O)N2CCC[C@@H](C)[C@H]2CNc2ncc(C(F)(F)F)cn2)n1` [Example A223, ((2S,3R)-3-Methyl-2-(((5-(trifluoromethyl)pyrimidin-2-yl)amino)methyl)piperidin-1-yl)(6-methyl-[3,3′-bipyridin]-2-yl)methanone]: greater than 5 µM.
Still for that read-out and setting: next, `C[C@@H]1CCCN(C(=O)c2cccc(F)c2-n2nccn2)[C@@H]1CNc1ncc(Cl)cn1` [Example A255, ((2S,3R)-2-(((5-Chloropyrimidin-2-yl)amino)methyl)-3-methylpiperidin-1-yl)(3-fluoro-2-(2H-1,2,3-triazol-2-yl)phenyl)methanone]: greater than 5 µM.
On the same count and under the same terms, next, `Cc1ccc(-n2ncc(C)n2)c(C(=O)N2CCC[C@@H](C)[C@H]2CNc2ccc(Cl)cn2)c1` [Example A121, ((2S,3R)-2-(((5-Chloropyridin-2-yl)amino)methyl)-3-methylpiperidin-1-yl)(5-methyl-2-(4-methyl-2H-1,2,3-triazol-2-yl)phenyl)methanone]: greater than 5 µM.
With `Cc1ccc(-n2nccn2)c(C(=O)N2CCC[C@@H](C)[C@H]2CNc2ncccc2C)c1` [Example A99, ((2S,3R)-3-Methyl-2-(((3-methylpyridin-2-yl)amino)methyl)piperidin-1-yl)(5-methyl-2-(2H-1,2,3-triazol-2-yl)phenyl)methanone], the IC50 is greater than 5 µM.
As to `C[C@@H]1CCCN(C(=O)c2cc(Cl)ccc2-n2nccn2)[C@@H]1CNc1ccc(C(F)(F)F)nn1` [Example A162, (5-Chloro-2-(2H-1,2,3-triazol-2-yl)phenyl)((2S,3R)-3-methyl-2-(((6-(trifluoromethyl)pyridazin-3-yl)amino)methyl)piperidin-1-yl)methanone], the IC50 is greater than 5 µM.

The same assay, now with this note: Table 2; CHO-OX2 cells, EC90 of OXA; read-out: IC50 Bioactivity OX2.
In the case of `Cc1nc(-c2ccccc2)c(C(=O)N2CC(F)CCC2CNC(=O)c2cccc3cccnc23)s1` (racemic) [Example 35, N-((5-Fluoro-1-(2-methyl-4-phenylthiazole-5-carbonyl)piperidin-2-yl)methyl)quinoline-8-carboxamide], the IC50 came out at 0.004 µM.
Regarding `Cc1nc(C(=O)N2CCC[C@@H](C)[C@H]2CNc2cccc3cccnc23)c(-c2ccc(F)cc2)s1` (racemic) [Example 74, rac-cis-(3-Methyl-2-((quinolin-8-ylamino)methyl)piperidin-1-yl)(5-(4-fluorophenyl)-2-methylthiazol-4-yl)methanone], the IC50 was greater than 5 µM.
Same read-out and setting: next, `COC1CCC(CNC(=O)c2cccc3cccnc23)N(C(=O)c2nc(C)sc2-c2cccc(F)c2)C1` (racemic) [Example 50, N-((1-(5-(3-Fluorophenyl)-2-methylthiazole-4-carbonyl)-5-methoxypiperidin-2-yl)methyl)quinoline-8-carboxamide]: 0.025 µM.
Regarding `Cc1nc(C(=O)N2CCC[C@@H](C)[C@H]2CNc2ncc(C(F)(F)F)cn2)c(-c2ccc(F)cc2)s1` (racemic) [Example 75, rac-cis-(3-Methyl-2-(((5-(trifluoromethyl)pyrimidin-2-yl)amino)methyl)piperidin-1-yl)(5-(4-fluorophenyl)-2-methylthiazol-4-yl)methanone], the IC50 came to 3.3 µM.
As to `Cc1ccc(NC[C@@H]2[C@H](C)CCCN2C(=O)c2nc(C)sc2-c2ccc(F)cc2)nc1` (racemic) [Example 86, rac-cis-(3-Methyl-2-(((5-methylpyridin-2-yl)amino)methyl)piperidin-1-yl)(5-(4-fluorophenyl)-2-methylthiazol-4-yl)methanone], the IC50 is greater than 10 µM.
On the same count and under the same terms, next, `Cc1nc(C(=O)N2C[C@H]3CCC[C@H]3C2COc2ccc(C(F)(F)F)cn2)c(-c2ccc(F)cc2)s1` (mixture of isomers) [Example 101, (5-(4-Fluorophenyl)-2-methylthiazol-4-yl)(1-(((5-(trifluoromethyl)pyridin-2-yl)oxy)methyl)hexahydrocyclopenta[c]pyrrol-2(1H)-yl)methanone]: greater than 10 µM; `Cc1nc(C(=O)N2CCC[C@H](C)[C@H]2CNc2ncc(Cl)cn2)c(-c2ccc(F)cc2)s1` (racemic) [Example 96, rac-trans-(2-(((5-Chloropyrimidin-2-yl)amino)methyl)-3-methylpiperidin-1-yl)(5-(4-fluorophenyl)-2-methylthiazol-4-yl)methanone]: 1.4 µM.
Regarding `Cc1nc(C(=O)N2C[C@H]3CCC[C@H]3C2CNc2nc3ccccc3o2)c(-c2ccc(F)cc2)s1` (mixture of isomers) [Example 100, (1-((Benzo[d]oxazol-2-ylamino)methyl)hexahydrocyclopenta[c]pyrrol-2(1H)-yl)(5-(4-fluorophenyl)-2-methylthiazol-4-yl)methanone], the IC50 was greater than 10 µM.

The same assay, now with this note: Table 6; racemate vs enantiomers; read-out: OX2 IC50.
`Cc1nc(C(=O)N2CCC[C@H](C)[C@@H]2CNc2ccc(C(F)(F)F)cn2)c(-c2ccc(F)cc2)s1` [Example A43, (5-(4-Fluorophenyl)-2-methylthiazol-4-yl)((2R,3S)-3-methyl-2-(((5-(trifluoromethyl)pyridin-2-yl)amino)methyl)piperidin-1-yl)methanone]: the IC50 was found to be 4 µM.
